According to PubChem BioAssay AID1259370 (Center for Chemical Genomics, University of Michigan, 2018):
This is a selection; strong and weak results do not stand in their true shares. Active and inactive are the calls of the source. Cut-off read from the data, not from the text of the source: active = z-score above about 3.2; inactive = the rest.

The compounds below were run against M-phase inducer phosphatase 2 (Homo sapiens) + Cyclin-dependent kinase 2 (Homo sapiens) + Cyclin-A2 (Homo sapiens) (UniProt P30305+P24941+P20248) (assay: primary biochemical HTRF screen for blockers of M-phase inducer phosphatase 2 binding to CDK2/cyclin A (AID 1259370)). Conditions: HTRF CDC25B-CDK2/CyclinA binding, anti-His/anti-Flag; stronger effect = higher value.
With `Cc1ccccc1NC1CC(C)(C)NC(C)(C)C1` the z-score was inactive: -2.47.
